From publication PMC2944037 (2010)

Amino acid sequences for entries named in this document (tags omitted).
UniProt P03372, whole entry: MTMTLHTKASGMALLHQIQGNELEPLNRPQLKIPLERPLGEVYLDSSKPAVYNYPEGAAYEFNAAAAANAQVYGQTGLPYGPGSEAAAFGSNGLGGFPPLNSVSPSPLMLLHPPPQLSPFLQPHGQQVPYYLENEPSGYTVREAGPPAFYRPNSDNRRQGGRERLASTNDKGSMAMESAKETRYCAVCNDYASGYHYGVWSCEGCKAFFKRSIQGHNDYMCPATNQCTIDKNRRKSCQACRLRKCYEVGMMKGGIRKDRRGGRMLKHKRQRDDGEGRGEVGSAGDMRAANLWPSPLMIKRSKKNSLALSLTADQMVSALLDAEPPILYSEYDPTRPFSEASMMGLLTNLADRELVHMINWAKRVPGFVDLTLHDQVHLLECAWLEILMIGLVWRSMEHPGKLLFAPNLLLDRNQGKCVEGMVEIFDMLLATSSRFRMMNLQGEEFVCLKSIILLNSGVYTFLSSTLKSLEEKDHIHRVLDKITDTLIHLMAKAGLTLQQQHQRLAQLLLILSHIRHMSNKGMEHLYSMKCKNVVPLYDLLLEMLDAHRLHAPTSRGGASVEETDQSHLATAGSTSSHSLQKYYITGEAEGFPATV

Target: hERα (Homo sapiens, UniProt P03372)
Experiment: CV1 transactivation assay with exogenous hERα
Format: cell-based
Conditions: 1 μM ICI + 10 nM E2; data not shown

C[C@]12CC[C@@H]3c4ccc(O)cc4C[C@@H](CCCCCCCCC[S+]([O-])CCCC(F)(F)C(F)(F)F)[C@H]3[C@@H]1CC[C@@H]2O (stereo partly shown) [ICI, ICI 182,780, reference compound] was tested, and the “Effect of ICI on E2-elicited transcriptional activation” value was “ablated”.
